Assay [1] deals with T1, LuxR (Aliivibrio fischeri, UniProt P35327). To be noted: read-out: LuxR EC50; V. fischeri ES114 (Δ-luxI).
The target in assay [2] is T1, LuxR. The conditions noted are these: 5 μM synthetic ligand against 5 μM OHHL; V. fischeri ES114 (Δ-luxI); normalized to OHHL.

Amino acid sequences for entries named in this document (tags omitted).
UniProt P35327, whole entry: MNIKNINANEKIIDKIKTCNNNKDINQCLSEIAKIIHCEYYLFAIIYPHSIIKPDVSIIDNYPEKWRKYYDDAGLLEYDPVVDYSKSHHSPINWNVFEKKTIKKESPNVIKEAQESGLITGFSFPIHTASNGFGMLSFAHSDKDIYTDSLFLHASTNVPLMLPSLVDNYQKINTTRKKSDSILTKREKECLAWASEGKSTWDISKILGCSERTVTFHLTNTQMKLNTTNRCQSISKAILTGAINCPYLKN

Where “and” joins values, the source holds several entries; their conditions need not be identical. Equal values may be shown once.

With `O=C(Cc1cccc(Br)c1)N[C@H]1CCOC1=O`, the EC50 (usually the concentration giving half of the maximal effect) at LuxR [1] is greater than 50 µM. The “V. fischeri-LuxR Inhibition [%]” value on LuxR [2] was 58% and 48%.

In the case of `O=C(Cc1cccc(Cl)c1)N[C@H]1CCOC1=O`, the EC50 on LuxR [1] is greater than 200 µM.
